The subject of assay [1] is APP/PS1 mice. The conditions noted are these: Aricept 1.0 mg/kg by gavage once a day Monday to Saturday, five weeks.
In assay [2] the test system is APP/PS1 mice. The settings on record: Aricept 1.0 mg/kg by gavage; one week after the MWM test.

Where a name gives a salt, the structure may show the parent alone.

Turning to `COc1cc2c(cc1OC)C(=O)C(CC1CCN(Cc3ccccc3)CC1)C2` (centres unmarked) [Aricept, donepezil hydrochloride], in assay [1], the “Performance in acquisition training (MWM)” value is on record as “no significant difference from the APP/PS1 mice without treatment”. The “Anxiety level (NSF feeding latency)” value in assay [2] is recorded as “not significantly different from or even higher than the APP/PS1 mice without treatment”.
